The chains behind the UniProt entries cited, without tags or fusion partners.
UniProt Q16539, whole entry: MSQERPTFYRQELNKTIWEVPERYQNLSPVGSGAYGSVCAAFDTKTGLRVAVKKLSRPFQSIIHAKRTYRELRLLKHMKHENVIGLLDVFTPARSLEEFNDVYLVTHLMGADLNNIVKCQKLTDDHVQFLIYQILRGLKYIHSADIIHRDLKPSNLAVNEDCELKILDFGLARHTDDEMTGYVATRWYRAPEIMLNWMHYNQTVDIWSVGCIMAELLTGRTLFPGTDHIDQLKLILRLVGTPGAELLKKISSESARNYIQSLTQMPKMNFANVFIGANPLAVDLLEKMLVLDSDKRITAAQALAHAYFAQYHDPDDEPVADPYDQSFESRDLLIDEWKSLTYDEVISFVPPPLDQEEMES

According to ChEMBL document CHEMBL1255503, “Biochemical and biophysical characterization of unique switch pocket inhibitors of p38α” (Bioorg Med Chem Lett, 2010):

biological target: Mitogen-activated protein kinase 14 (Homo sapiens, UniProt Q16539)

Ki [nM] | Structure (SMILES)
1450 | Cc1ccc(-n2nc(C(C)(C)C)cc2NC(=O)Nc2cccc3ccccc23)cc1C(=O)NCCc1ccc(N)cc1
1390 | CCN(CCOC)C(=O)c1cc(-n2nc(C(C)(C)C)cc2NC(=O)Nc2cccc3ccccc23)ccc1C
1400 | Cc1ccc(-n2nc(C(C)(C)C)cc2NC(=O)Nc2cccc3ccccc23)cc1C(=O)NCCc1c[nH]c2ccccc12
176 | Cc1ccc(-n2nc(C(C)(C)C)cc2NC(=O)Nc2cccc3ccccc23)cc1C(=O)NCc1ccncc1
